target: Metabotropic glutamate receptor 4 (Homo sapiens) (UniProt Q14833); assay: PubChem AID 2197; details: CHO hmGluR4/Gqi5 calcium mobilization, PAM potency

The chains behind the UniProt entries cited, without tags or fusion partners. Where a name states a change or a piece, a line headed by the entry shows the natural chain unless it says otherwise.
UniProt Q14833: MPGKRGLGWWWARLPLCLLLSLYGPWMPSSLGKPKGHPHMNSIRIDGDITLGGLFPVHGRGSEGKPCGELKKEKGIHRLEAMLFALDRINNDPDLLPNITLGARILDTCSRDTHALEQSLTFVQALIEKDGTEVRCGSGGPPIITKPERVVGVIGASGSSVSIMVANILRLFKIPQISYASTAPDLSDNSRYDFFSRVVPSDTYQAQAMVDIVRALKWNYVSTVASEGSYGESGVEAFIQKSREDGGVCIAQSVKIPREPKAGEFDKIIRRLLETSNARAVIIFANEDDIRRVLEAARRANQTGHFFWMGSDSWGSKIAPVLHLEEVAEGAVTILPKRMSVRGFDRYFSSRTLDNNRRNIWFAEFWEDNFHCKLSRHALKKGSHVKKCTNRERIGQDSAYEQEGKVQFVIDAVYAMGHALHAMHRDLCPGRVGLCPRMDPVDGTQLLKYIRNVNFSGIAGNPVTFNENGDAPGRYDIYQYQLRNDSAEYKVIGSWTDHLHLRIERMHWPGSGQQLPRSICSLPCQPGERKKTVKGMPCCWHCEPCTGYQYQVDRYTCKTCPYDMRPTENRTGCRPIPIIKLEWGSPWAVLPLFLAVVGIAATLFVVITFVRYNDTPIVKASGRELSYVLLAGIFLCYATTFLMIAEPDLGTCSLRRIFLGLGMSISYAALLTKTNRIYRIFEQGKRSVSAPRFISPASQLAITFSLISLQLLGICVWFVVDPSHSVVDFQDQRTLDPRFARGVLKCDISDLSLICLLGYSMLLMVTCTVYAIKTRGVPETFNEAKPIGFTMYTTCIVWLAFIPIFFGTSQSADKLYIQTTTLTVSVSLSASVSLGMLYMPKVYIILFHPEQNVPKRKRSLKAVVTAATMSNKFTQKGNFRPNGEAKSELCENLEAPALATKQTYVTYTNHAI

| Compound | EC50 [nM] |
| --- | --- |
| CC1(c2ccccc2)CC(=O)N(c2ccc(NC(=O)c3ccccn3)cc2Cl)C1=O (stereo not given) | 837 |
| O=C(Nc1ccc(N2C(=O)C3[C@@H]4C=C[C@@H](CC4)[C@H]3C2=O)c(Cl)c1)c1ccccn1 (stereo not given in full) | 318 |
| O=C(Nc1ccc(N2C(=O)C3CCCC[C@@H]3C2=O)c(Cl)c1)c1ccccn1 (stereo not given in full) | 265 |
| O=C(Nc1ccc(N2C(=O)CC3(CCCCC3)C2=O)c(Cl)c1)c1ccccn1 | 154 |
| O=C(Nc1ccc(NC(=O)c2ccccc2Cl)c(F)c1)c1ccccn1 | 480 |
| O=C(Nc1ccc(N2C(=O)CC(c3ccccc3)C2=O)c(Cl)c1)c1ccccn1 (stereo not given) | 823 |

The next lines start with the values.

| EC50 [nM] | Compound |
| --- | --- |
| 47.1 | O=C(Nc1ccc(N2C(=O)c3cccc(Cl)c3C2=O)c(Cl)c1)c1ccccn1 |
| 473 | CC1(C)[C@@H]2C(=O)N(c3ccc(NC(=O)c4ccccn4)cc3Cl)C(=O)[C@@H]21 |
| 95.3 | COc1cc(NC(=O)c2ccccn2)ccc1NC(=O)c1ccccc1Cl |
| 60.3 | O=C(Nc1ccc(N2C(=O)c3ccccc3C2=O)c(Cl)c1)c1ccccn1 |
